In patent US10988792B2, “Methods for antimicrobial resistance determination” (bioMerieux, Inc., priority 2009, dated 2021):

Tests used:
Test in all cases: Co-culture with vancomycin and Sytox Green, intrinsic fluorescence and membrane integrity of pellet
Assay type in all cases: cell-based
[1] = tested on: E. faecium 12406 (VRE); settings: Vanc. 2.5 μg/mL, 1 hour
Description: (§1) For each test strain, a 1 μL loopful of colonies from a 24-48 hour plate was suspended in 10-12 mL of BacT/ALERT SA media and cultured for 4-9 hours at 37° C. Samples of each log phase culture were then incubated with 0, 0.25, 2.5 and 12.5 μg/mL of vancomycin-HCl in combination with 1:5000 dilution of stock Sytox Green, a viable cell impermeant DNA stain (Molecular Probes, cat #S7020), for a period of 4 hours at 37° C. Aliquots of the cultures were removed for analysis immediately (T0) and after 1, 2.5 and 4 hours.
(§2) At the appropriate time-point, 0.5 mL aliquots of the cultures (0.5 mL) were overlaid on a density cushion composed of 24% w/v CsCl in 10 mM Hepes, pH 7.4 and 0.005% Pluronic F-108 contained in custom-made optical centrifugation tubes as disclosed in related U.S. patent application, Ser. No. 12/589,969, entitled “Separation Device for Use in the Separation, Characterization and/or Identification of Microorganisms”, filed Oct. 30, 2009. The tubes were sealed and centrifuged at 10,000 rpm for 2 minutes to separate intact microorganisms from the culture medium and unbound chemicals. The tubes were then placed into a custom-built tube holder directly onto a fiber optic probe built into the base. The probe was attached to a FluoroLog 3 spectrofluorimeter. The tube was interrogated through its UV-transparent base, and fluorescence and diffuse reflectance readings collected.

[2] = tested on: E. faecium 14054 (VSE)
Description: as §1, §2

[3] = tested on: E. faecium 13185 (VRE); settings: Vanc. 12.5 μg/mL, 1 hour
Description: as §1, §2

`CN[C@H](CC(C)C)C(=O)N[C@H]1C(=O)N[C@@H](CC(N)=O)C(=O)N[C@H]2C(=O)N[C@H]3C(=O)N[C@H](C(=O)N[C@H](C(=O)O)c4cc(O)cc(O)c4-c4cc3ccc4O)[C@H](O)c3ccc(c(Cl)c3)Oc3cc2cc(c3O[C@@H]2O[C@H](CO)[C@@H](O)[C@H](O)[C@H]2O[C@H]2C[C@](C)(N)[C@H](O)[C@H](C)O2)Oc2ccc(cc2Cl)[C@H]1O` [vancomycin] was tested, and the “Microbial NADH fluorescence (Ex340 nm/Em440 nm)” value (shortened to “Microbial NADH fluorescence”) [1] was 253,323, the “Microbial NADH fluorescence” value ([2]; Vanc. 2.5 μg/mL, 2.5 hour) was 349,287 and the “Microbial NADH fluorescence” value ([2]; Vanc. 12.5 μg/mL, Zero time) was 248,332. For the same compound, the “Microbial NADH fluorescence” value [3] was 226,769.
